The chains behind the UniProt entries cited, without tags or fusion partners. Where a name states a change or a piece, a line headed by the entry shows the natural chain unless it says otherwise.
UniProt P30874: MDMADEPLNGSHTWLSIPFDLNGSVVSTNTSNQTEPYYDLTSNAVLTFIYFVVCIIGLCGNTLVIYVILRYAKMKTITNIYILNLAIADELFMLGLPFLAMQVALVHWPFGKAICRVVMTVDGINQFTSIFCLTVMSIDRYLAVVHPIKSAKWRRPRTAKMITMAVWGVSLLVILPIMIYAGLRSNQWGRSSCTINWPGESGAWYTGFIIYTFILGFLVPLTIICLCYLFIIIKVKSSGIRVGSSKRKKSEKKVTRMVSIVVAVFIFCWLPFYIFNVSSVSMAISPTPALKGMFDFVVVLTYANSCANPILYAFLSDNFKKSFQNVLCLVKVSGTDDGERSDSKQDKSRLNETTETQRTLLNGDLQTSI

In patent US10351547B2, “Somatostatin modulators and uses thereof” (priority 2016, dated 2019):

Molecular target: human SSTR2 (Homo sapiens (Human), UniProt P30874)
Test: Human SSTR2 intracellular cAMP functional assay for agonists (HTRF)
Format: cell-based
Procedure: Functional Assay for SSTR2 Agonists
General overview: All five SSTR subtypes are Gi coupled G-protein coupled receptors (GPCRs) that lead to decreases in intracellular cyclic AMP (cAMP) when activated by an agonist. […] Human SSTR2 intracellular cAMP assay is described below. The human SSTR1, 3, 4 and 5 assays follow the same protocol of SSTR2.
The cells are cultured at 37° C., 5% CO2 and 95% humidity. […] The cells are incubated for 20 minutes at 37° C. […] The cells are treated with 50 μL of lysis buffer (HRTF cAMP kit, Cisbio). […] The time-resolved fluorescent signal is read with a Tecan M1000Pro multiplate reader. The intracellular cAMP concentrations are calculated by regression to a standard curve and are plotted vs. the concentration of the compounds of the invention and the EC50 of the compounds are calculated using standard methods. All data manipulations are in GraphPad Prism v6.

Compound	EC50
N#Cc1cccc(-c2ccc3ncc(-c4cc(F)cc(F)c4)c(N4CC(C5COCCN5)C4)c3c2)c1O (centres unmarked) [2-271, 3-[3-(3,5-difluorophenyl)-4-[3-(morpholin-3-yl)azetidin-1-yl]quinolin-6-yl]-2-hydroxybenzonitrile]	10 to 100 nM
Cc1cc(F)cc(-c2cnc3ccc(-c4cccc(C#N)c4O)cc3c2N2CC(C3COCCN3)C2)c1 (centres unmarked) [2-270, 3-[3-(3-fluoro-5-methylphenyl)-4-[3-(morpholin-3-yl)azetidin-1-yl]quinolin-6-yl]-2-hydroxybenzonitrile]	< 10 nM
